{"sequences": {"note": "The chains behind the UniProt entries cited, without tags or fusion partners. Where a name states a change or a piece, a line headed by the entry shows the natural chain unless it says otherwise.", "UniProt O14744": "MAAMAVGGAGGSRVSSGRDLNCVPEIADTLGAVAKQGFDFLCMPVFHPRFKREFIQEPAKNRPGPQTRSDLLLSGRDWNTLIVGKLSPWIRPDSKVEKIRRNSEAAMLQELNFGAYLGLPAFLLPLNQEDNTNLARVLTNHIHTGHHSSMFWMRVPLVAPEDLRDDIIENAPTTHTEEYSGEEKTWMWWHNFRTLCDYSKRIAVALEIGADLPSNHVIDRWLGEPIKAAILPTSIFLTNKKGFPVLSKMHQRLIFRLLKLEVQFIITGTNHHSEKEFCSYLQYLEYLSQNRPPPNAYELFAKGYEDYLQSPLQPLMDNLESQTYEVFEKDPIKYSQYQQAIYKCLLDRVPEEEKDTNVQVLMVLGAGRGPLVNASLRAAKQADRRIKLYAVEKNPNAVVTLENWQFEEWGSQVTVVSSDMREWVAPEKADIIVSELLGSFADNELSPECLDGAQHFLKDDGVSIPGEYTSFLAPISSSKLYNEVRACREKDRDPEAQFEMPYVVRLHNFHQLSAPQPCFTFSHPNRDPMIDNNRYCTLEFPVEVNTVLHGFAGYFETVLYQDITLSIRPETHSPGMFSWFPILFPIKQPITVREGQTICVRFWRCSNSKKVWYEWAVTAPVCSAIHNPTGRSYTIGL", "UniProt Q9BQA1": "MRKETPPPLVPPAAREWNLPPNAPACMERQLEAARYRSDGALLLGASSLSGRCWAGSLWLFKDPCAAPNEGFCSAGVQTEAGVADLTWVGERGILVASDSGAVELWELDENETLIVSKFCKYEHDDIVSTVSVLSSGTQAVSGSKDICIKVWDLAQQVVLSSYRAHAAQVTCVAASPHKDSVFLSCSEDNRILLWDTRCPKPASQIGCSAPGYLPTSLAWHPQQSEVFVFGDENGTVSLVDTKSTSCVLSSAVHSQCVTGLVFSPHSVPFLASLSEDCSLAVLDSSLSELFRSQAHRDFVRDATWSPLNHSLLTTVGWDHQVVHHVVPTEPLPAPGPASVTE"}, "source": "ChEMBL document CHEMBL6087464", "about": "“Design, Synthesis, and Biological Evaluation of 3,4-Dihydroisoquinolin-1(2H)-one Derivatives as Protein Arginine Methyltransferase 5 Inhibitors for the Treatment of Non-Hodgkin's Lymphoma” (J Med Chem, 2025)", "target": "PRMT5/MEP50 complex (Homo sapiens, UniProt O14744+Q9BQA1)", "data": [{"molecule": "CC(=O)N1CC2(CC(Nc3cc4c(cn3)C3(CC3)CN(C[C@H](O)CN3CCc5ccccc5C3)C4=O)C2)C1", "values": [{"measurement": "Ka", "value": "3.47 10^5/Ms"}]}]}
